# Yeast mating assay B: variants of the scFv Ab-14

Data: MIT Lincoln Laboratory AlphaSeq set, Li et al. 2023, doi:10.1038/s41467-023-39022-2, as distributed in FLAb.

Binding partner: SARS-CoV-2 spike HR2 peptide, sequence PDVDLGDISGINAS.

Parent scFv Ab-14: VH joined to VL by three GGGGS repeats. Changes lie in the light chain CDRs alone.
VH: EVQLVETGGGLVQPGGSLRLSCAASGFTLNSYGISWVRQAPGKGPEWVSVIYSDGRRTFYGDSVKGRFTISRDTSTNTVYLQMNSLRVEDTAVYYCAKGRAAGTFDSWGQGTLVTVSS
VL: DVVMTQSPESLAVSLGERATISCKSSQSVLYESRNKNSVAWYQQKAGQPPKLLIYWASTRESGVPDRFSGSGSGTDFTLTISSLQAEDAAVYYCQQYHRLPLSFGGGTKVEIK

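The starting antibody came from a phage panning campaign against this peptide. The variants were designed computationally from a first round of random CDR variants and then made and measured. Their group label is 14L_Ctrl (Ctrl: baseline library sampled from a position-specific scoring matrix, with some repeated check sequences). Affinity was read by AlphaSeq, a pooled yeast mating assay with surface-displayed partners. Mating (16 h, 30 °C) was followed by selection of diploids and sequencing of their barcodes. Scores were corrected for input abundance and mapped to Kd with protein pairs of known affinity run in the same pool. The assay was run in six technical replicates.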

Changes read parent residue, position, new residue, counted from the first residue of the VL shown.
Scale: log10 of Kd in nM, estimated from mating counts; low values are strong binders.
Averages over replicates are reported, and they cover detected replicates only.
A pair that was not seen in that replicate is written "nd"; this usually means weak binding, but a binder can also be missed.
Background: pairings of all light chain designs with three empty control strains gave a value in 4% of cases (median 2.64, 5th percentile 1.59). Values in that range, when seen in few replicates, are hard to tell from nonspecific mating. The control count says in how many pairings with the empty strains this scFv gave a signal, with their mean in brackets.
The range of this assay differs from that of the first round, and the authors advise against merging the two.
The authors averaged sequences with at least three values out of six and counted those with two or fewer as poor binders.

changes | log10 Kd, replicates | mean log10 Kd (nM) | signal with controls
Q27G+Y31A | 1.77 1.75 2.11 1.92 1.90 2.75 | 2.03 | 3 of 18 (2.67)
S58I | nd nd nd nd nd nd | nd | 0 of 18
S25L+Y31E+R34D+N35M+S38N+S58K+S62M | 1.26 2.09 1.53 2.55 1.49 2.37 | 1.88 | 1 of 18 (2.04)
S25D+Y31L+S62E+R99Y | nd nd nd nd 3.37 2.45 | 2.91 | 1 of 18 (2.31)
S25Q+Y31G+W56G+E61V | 0.45 0.47 0.39 0.28 0.13 0.57 | 0.38 | 0 of 18
Y31Q+N35T+S38N+W56N | 0.37 0.31 0.17 0.22 0.46 0.43 | 0.33 | 0 of 18
W56A+H98F | -0.08 0.10 0.08 0.14 0.11 0.10 | 0.07 | 0 of 18
V39I+R99G | nd nd nd nd nd nd | nd | 1 of 18 (2.14)
S25L+S28D+Y31M+S62L | -0.09 0.07 -0.24 -0.11 0.00 0.04 | -0.05 | 0 of 18
Q27W+Y97V | nd nd nd nd nd nd | nd | 0 of 18
S25F+Y31N+R34W+K36G | nd nd nd nd nd nd | nd | 1 of 18 (2.69)
S58D+S62D+R99H | 1.36 0.80 0.80 0.61 0.67 1.45 | 0.95 | 1 of 18 (1.99)
S28I+Y31T+S38C+W56T+S62A | nd nd nd nd 3.94 nd | 3.94 | 0 of 18
S25C+V29W+S33D+W56G | 0.32 0.21 0.11 0.01 0.09 0.26 | 0.17 | 0 of 18
S26Q+E32N | 1.53 1.53 nd 2.57 2.37 2.69 | 2.14 | 0 of 18
L30F+N35R+S38P+W56K | nd nd nd nd 1.43 nd | 1.43 | 1 of 18 (1.64)
S25I+E32A+K36S+W56G+Q96A | 0.69 0.59 0.30 0.46 0.53 0.64 | 0.54 | 2 of 18 (2.50)
V29W+Y31E+S62A | 1.00 0.81 1.09 1.43 1.03 1.41 | 1.13 | 1 of 18 (2.46)
W56D+S62M+S103C | 0.46 0.23 0.20 0.27 0.00 0.23 | 0.23 | 0 of 18
W56Y+S103W | nd nd nd nd nd nd | nd | 1 of 18 (3.47)
K24D+R34D+W56N+S103K | 0.13 -0.01 -0.04 -0.04 -0.07 0.46 | 0.07 | 0 of 18
Y31V+H98F | 1.48 2.03 1.73 2.27 0.63 0.90 | 1.51 | 0 of 18
W56Q+P101V | nd 0.89 0.96 1.22 3.15 1.53 | 1.55 | 0 of 18
V29Q+R34M+S38P+S62E | 1.23 1.47 2.34 0.88 0.50 0.70 | 1.19 | 0 of 18
S25Y+S26M+S28G+S38D | 1.36 0.72 1.37 0.58 0.76 1.29 | 1.01 | 1 of 18 (3.14)
K36D | nd nd 3.02 nd 2.30 2.05 | 2.46 | 1 of 18 (1.20)
W56T+E61V | 1.15 2.42 0.64 1.38 0.66 0.37 | 1.11 | 0 of 18
Q27D+L30Q+S58D | nd 2.15 nd nd nd nd | 2.15 | 0 of 18
L30E+R99W | nd nd nd nd nd nd | nd | 0 of 18
N37Y+L100Q | nd nd nd nd nd nd | nd | 0 of 18
Y31S+N35L+H98F | 2.50 1.66 1.05 1.06 1.45 1.54 | 1.55 | 0 of 18
W56D+L102P | nd nd nd nd nd nd | nd | 0 of 18
S25C | nd nd nd 2.41 nd nd | 2.41 | 0 of 18
L30S+W56A+Q95G | 1.40 1.32 0.92 1.29 1.29 1.22 | 1.24 | 1 of 18 (3.35)
S25D+S26C+Y31A+K36V+L100V | nd nd nd nd nd nd | nd | 0 of 18
V29D+Q95F | 2.23 0.38 0.41 1.09 0.63 1.01 | 0.96 | 0 of 18
S25Y+S38A+A40C+W56A+S103K | nd 1.99 nd 1.82 2.30 nd | 2.04 | 0 of 18
S25I+T59V+H98I | 0.50 0.34 -0.07 0.18 0.58 0.25 | 0.30 | 0 of 18
N37F+S38A | nd nd nd nd nd nd | nd | 0 of 18
Y31E+R34S+T59M | 0.14 0.44 0.37 -0.15 0.00 0.91 | 0.29 | 0 of 18
K36A+W56G+H98Q+S103M | -0.73 -1.01 nd -0.22 0.01 -1.12 | -0.61 | 0 of 18
W56A+S58T | 0.29 1.16 0.53 0.48 0.71 0.66 | 0.64 | 0 of 18
V29T+R99V | 1.51 3.37 nd 2.96 2.61 3.25 | 2.74 | 0 of 18
K24M+S103L | nd nd nd nd nd nd | nd | 0 of 18
K24M+S25I+L102I | 1.52 nd nd nd 2.73 1.65 | 1.97 | 0 of 18
V29W+S33D+P101S | nd nd nd nd nd nd | nd | 0 of 18
K24H+Q27D | nd nd nd nd 2.19 nd | 2.19 | 0 of 18
E32Y+A57D | nd nd 3.27 nd nd nd | 3.27 | 0 of 18
Q27S+W56K+S103I | 1.35 1.01 1.20 1.18 1.66 1.23 | 1.27 | 1 of 18 (3.29)
K24Y+W56M+S62A | nd 1.11 0.73 0.88 1.23 2.76 | 1.34 | 1 of 18 (1.25)
R34Q+W56S | 0.73 0.38 0.50 0.17 0.28 0.43 | 0.42 | 1 of 18 (1.65)

The first 4 entries again:

{"changes": "Q27G+Y31A", "log10 Kd, replicates": "1.77 1.75 2.11 1.92 1.90 2.75", "mean log10 Kd (nM)": "2.03", "signal with controls": "3 of 18 (2.67)"}
{"changes": "S58I", "log10 Kd, replicates": "nd nd nd nd nd nd", "mean log10 Kd (nM)": "nd", "signal with controls": "0 of 18"}
{"changes": "S25L+Y31E+R34D+N35M+S38N+S58K+S62M", "log10 Kd, replicates": "1.26 2.09 1.53 2.55 1.49 2.37", "mean log10 Kd (nM)": "1.88", "signal with controls": "1 of 18 (2.04)"}
{"changes": "S25D+Y31L+S62E+R99Y", "log10 Kd, replicates": "nd nd nd nd 3.37 2.45", "mean log10 Kd (nM)": "2.91", "signal with controls": "1 of 18 (2.31)"}